Measured values: patent US20240207141A1, “PEPTIDE HAVING REPARATIVE DENTIN-REGENERATING ACTIVITY AND USE THEREOF” (SEOUL NATIONAL UNIVERSITY R&DB FOUNDATION, priority 2022, published 2024)

System: rat pulp exposure model
Assay: Rat tooth pulp exposure model, histologic analysis (H&E) of inflammatory response and hard tissue formation
Format: in vivo
Description: Seven-week-old male Sprague-Dawley rats were purchased from the OrientBio after approval from the Institutional Animal Care and Use Committee of Seoul National University (No. SNU-180109-2) was obtained. The rats were used after 1-week acclimation under standard animal housing conditions (12-h light and 12-h dark cycles with free access to food and water) and randomly divided into the following six groups for the pulp-capping procedure: self-adhesive resin cement (Resin) group, ProRoot MTA (MTA) group, vehicle (Veh) group, rhBMP-2 group, SP group, and VnP-16 group. The Resin group and Veh group were used as negative controls and the MTA group and rhBMP-2 group were used as positive controls. Resin cement (Rely X U-200, 3M ESPE, MN, USA) was used as the final restoration in all experimental groups.
Specifically, the rats were anesthetized by the intraperitoneal injection of 31.25 mg/kg tiletamine/zolazepam and 8.75 mg/kg xylazine. After ascertaining the general anesthesia, the oral cavity was opened with a customized wire to expose the lower first molars. After cleaning and sanitizing with both 3% H2O2 and a 10% Betadine-soaked cotton, the center of the occlusal surface was carefully punctured using a #¼ round bur (0.5 mm in diameter) with a high-speed hand piece. MTA (ProRoot MTA, Dentsply Sirona, York, PA, USA) was mixed according to the manufacturer's instruction and the mixture was applied to the exposed pulp. Absorbable collagen sponges (BiolandKorea, Cheonan, Korea) were loaded with vehicle (10 μL of DMSO and 5 μL of DDW) (vehicle (Vhe) group), rhBMP-2 (2 μg per scaffold, 15 μL volume; Pepro-Tech, Rocky Hill, NJ, USA) (rhBMP-2 group), or synthetic peptides SP or VnP-16 (2 mg per scaffold, 15 μL volume) (SP and VnP-16 groups), respectively, and then applied to the exposed pulp. The punctured sites were covered with resin cement after the application of MTA or the collagen sponge. In the Resin group, resin cement was directly applied to the punctured site. The sharp cusp tips of the upper molar and lower first molar were grinded using a football shaped diamond bur in order to prevent tooth fractures by mastication.
Rats were histologically analyzed 2 and 4 weeks after pulp exposure surgery. Whole mandibles were fixed f in 4% paraformaldehyde at 4° ° C. for 24 hours. For histological staining, the specimens were decalcified with 12% EDTA for 4 weeks and embedded in paraffin. […] Each sample was evaluated and scored for inflammatory response and hard tissue formation according to the criteria presented in [Table 2] below. In this study, reparative dentin formed under the pulp-exposed site, which is distinguished from dentin regenerated under the existing dentin, was evaluated.

[1] = 2 weeks after pulp exposure surgery, grade per Table 2

## rhBMP-2: rhBMP-2 from Pepro-Tech loaded on collagen sponge; positive control
2 weeks after pulp exposure surgery
  newly formed mineralized tissues at the pulp-exposed sites: hardly detected
[1]
  number of specimens with a moderate inflammatory response: 3 out of 6
  share of specimens with a moderate inflammatory response: 50%
4 weeks after pulp exposure surgery
  reparative dentin formation score: moderate and heavy
